This passage reports inhibition results from PubChem BioAssay AID1885 (Broad Institute, 2009).

Only a part is listed here, and it is no random draw. The source made the active and inactive calls.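 Rule for the calls: active = mean inhibition across valid replicates above about 55% (limit read from the data); inconclusive = mean below that limit but half or more replicates reach it; inactive = mean below it, under half of replicates reach it.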

The nature of the test: Trypanosoma cruzi replication blockers in host cells – luminescence, NIH3T3 host cells, primary screen (AID 1885).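 Note: signal also drops with host cell toxicity which is not excluded here; 0% = plate median of DMSO wells and 100% = zero luminescence signal; higher percent means less beta-gal luminescence so fewer parasites.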 The note with it: T. cruzi beta-gal in NIH3T3, luminescence, 90 h; stronger effect = higher value; concentration not given here. In outline: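 Assay system: NIH/3T3 fibroblasts plus reporter T. cruzi. Amount: NIH/3T3 cells, 5,000 per well. Buffer or medium: DMEM, 2% fetal bovine serum. Doses: compound pinned at 50 nL/well, DMSO. Schedule: ≥90 h infection period, 3 h prior cell attachment. Signal: luminescent β-galactosidase signal after 60 min lysis. Read-out: parasite load inhibition, %.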
In the case of `Cc1cc(C)cc(OP(C)(=O)Nc2ccc(C)cc2C)c1` (stereo not drawn), the inhibition – broadly, the change of the read-out against control, counted positive when it falls – is inactive: 6.82%. For the molecule `CCOC(=O)c1ccc(NP(C)(=O)Oc2cc(C)cc(C)c2)cc1` (stereo not drawn), the inhibition is inactive: 14.4%. Take `O=C(OC1CN2CCC1CC2)c1ccc(Cl)cc1` (stereo not drawn): the inhibition is inactive: 14.3%. Then `O=[As](O)(O)c1cccnc1`, with inactive: -17.2%. Then `COc1cc(C(=O)NCC2(N3CCOCC3)CCCCC2)cc(Cl)c1OC(C)C`, with inactive: 23.8%; and `COc1ccccc1OP(C)(=O)Nc1cccc(Br)c1` (stereo not drawn), with inactive: 9.75%; and `CS(=O)(=O)c1ccc(Cl)c(NC(=O)COC(=O)C(O)(c2ccccc2)c2ccccc2)c1`, with inactive: 0.452%. Turning to `CCOP(=O)(Nc1cccc2ccccc12)OCC`, the inhibition was inactive: -15.9%. For the molecule `Cc1cc(C)cc(OP(C)(=O)Nc2ccccn2)c1` (stereo not drawn), the inhibition is inactive: -12.8%. Consider `CP(=O)(Nc1cccc(Br)c1)Oc1ccccc1` (stereo not drawn), for which the inhibition was inactive: -9.11%. For `Nc1cccc2c([As](=O)(O)O)cccc12` the value was inactive: 1.52%; for `Cc1ccc(C)c(NP(C)(=O)Oc2ccccc2)c1` (stereo not drawn), inactive: -0.545%; for `CCCOP(=S)(Nc1nc(N)cc(=O)[nH]1)OCCC`, inactive: 3.65%.

As to `Nc1ccccc1[As](=O)(O)c1ccccc1`, the inhibition was inactive: 5.77%. For `O=C(O)COc1ccc([As](=O)(O)O)cc1[N+](=O)[O-]` the value was inactive: 3.18%; for `CCOP1(=S)c2c(C)nn(CCC#N)c2N=C(c2ccccc2F)N1C` (stereo not drawn), inactive: 8.19%; for `O=C(O)c1cccc(Nc2c([N+](=O)[O-])cc([N+](=O)[O-])cc2[N+](=O)[O-])c1`, inactive: 4.03%.

Consider `O=P(Nc1nccs1)(Oc1ccccc1)Oc1ccccc1`, for which the inhibition was inactive: -10.2%.

Take `O=P(Nc1nccs1)(c1ccccc1)c1nc2ccccc2s1` (stereo not drawn): the inhibition was inactive: 19.8%.

Turning to `CS(=O)(=O)c1cc([N+](=O)[O-])c2no[n+]([O-])c2c1`, the inhibition was inactive: -10%. Then `N#CCCN(C(=O)COC(=O)C(O)(c1ccccc1)c1ccccc1)c1ccc(F)cc1`, with inactive: 8.45%; and `CN(C(=O)Cc1ccccc1)[C@@H]1CC[C@]2(CCCO2)C[C@H]1N1CCCC1`, with inactive: -4.38%; and `CCOP1(=S)c2c(C)nn(CCC#N)c2N=C(c2ccc(F)cc2)N1C` (stereo not drawn), with inactive: 3.28%. For `O=[N+]([O-])c1ccc2c(c1)nnn2O` the value was inactive: -16.9%; for `CN(C)C(=O)c1cc([N+](=O)[O-])cc2c1-c1c(cc([N+](=O)[O-])cc1[N+](=O)[O-])C2=O`, inactive: 47.2%.

Take `CC1=NCCc2c1[nH]c1ccccc21.O=[N+]([O-])c1cc([N+](=O)[O-])c(O)c([N+](=O)[O-])c1`: the inhibition is inactive: -15%. As for `CN(C(=O)Cc1ccc(Cl)c(Cl)c1)[C@H]1CC[C@@]2(CCCO2)C[C@@H]1N1CCCC1`, the inhibition is inactive: 9.93%.

Regarding `NC(=O)Nc1ccc([As](=O)(O)O)cc1`, the inhibition is inactive: -24%.
